The values below come from PubChem BioAssay AID2029 (NMMLSC, 2009).

This is a selection; strong and weak results do not stand in their true shares. Calls of active or inactive are those of the source.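 Rule for the calls: active = GFP response relative to DMSO above a set limit, near the screen mean plus 3 SD (cut at about 150% in these data); inconclusive = Fewer than 70 cells measured for a yeast strain; inactive = the rest.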

The nature of this assay: modulators of CIT2-GFP expression in yeast, primary screen, S. cerevisiae, GFP fusion, multiplex flow cytometry, MLPCN library (AID 2029).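 Note: ratio of well median GFP fluorescence to mean of DMSO wells on the plate.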 The settings on record: S. cerevisiae CIT2-GFP strain, 3 h, at 10 µM, stronger effect = higher value, 100 means same as DMSO wells. A general note: A flow cytometer gives signals particle by particle.
Regarding `O=P(Nc1nccs1)(c1ccccc1)c1ccccc1`, the GFP response vs DMSO is inactive: 104%.
The value for `CC(C)C(=O)NC(Sc1ccccc1)C(Cl)(Cl)Cl` (stereo unspecified) was inactive: 87.3%; that for `c1nnnn1CCn1cnnn1` was inactive: 94.9%; that for `O=[As](O)(c1ccccc1)c1ccc(O)cc1` was inactive: 87.7%.
As to `O=[N+]([O-])c1ncn(CCn2cnc([N+](=O)[O-])n2)n1`, the GFP response vs DMSO was inactive: 97%.
For `CC(=O)NC(SC(=S)N(C)C)C(Cl)(Cl)Cl` (stereo unspecified), the GFP response vs DMSO was inactive: 95.3%.
The value for `O=[N+]([O-])c1ccc(O)c(/C=N/Nc2ccc([N+](=O)[O-])cc2[N+](=O)[O-])c1` was inactive: 101%; that for `O=C(OC1CN2CCC1CC2)c1cccc(Cl)c1` (stereo unspecified) was inactive: 105%; that for `Nc1ccc([As](=O)(O)c2ccc([N+](=O)[O-])cc2)cc1` was inactive: 102%.
`C(Cc1nn[nH]n1)Cc1nn[nH]n1`: the GFP response vs DMSO is inactive: 100%.
Then `CN(C)C1(CNC(=O)c2ccc(Cl)c(S(N)(=O)=O)c2)CCCCC1`, with inactive: 101%.
With `O=P(Nc1ccccn1)(c1ccc(Br)cc1)c1ccc(Br)cc1`, the GFP response vs DMSO is inactive: 98.1%.
Turning to `C[C@H]1OP(=O)(Oc2ccccc2)[C@H](O)[C@H](O)[C@H]1N=[N+]=[N-]` (stereo partly specified), the GFP response vs DMSO was inactive: 93.9%.
With `O=P(Nc1nc2ccccc2s1)(c1ccccc1)c1ccccc1`, the GFP response vs DMSO is inactive: 120%.
For `CCC(=O)N1C2C3N(C(=O)CC)C1C1N(C(=O)CC)C(C(N1C(=O)CC)N3C(=O)CC)N2C(=O)CC`, the GFP response vs DMSO was inactive: 106%.
As for `O=C(OC1CN2CCC1CC2)c1ccccc1` (stereo unspecified), the GFP response vs DMSO is inactive: 95.8%.
As for `CC(=O)NC(SC(=S)N(CC(C)C)CC(C)C)C(Cl)(Cl)Cl` (stereo unspecified), the GFP response vs DMSO is inactive: 85%.
For the molecule `COC(=O)c1cc2c(s1)N=C(c1ccccc1)N(C)P2(=O)N1CCOCC1` (stereo unspecified), the GFP response vs DMSO was inactive: 115%.
With `CN(C)C(=O)Oc1noc2ccccc12`, the GFP response vs DMSO is inactive: 83.2%.
As to `Cc1ccccc1OP(=O)(Nc1ccccn1)Oc1ccccc1C`, the GFP response vs DMSO was inactive: 99.5%.
Then `CC(NC(=O)COC(=O)C(O)(c1ccccc1)c1ccccc1)c1ccccc1` (stereo unspecified), with inactive: 89.5%; and `CCOC(=O)NC(Sc1ccccc1)C(Cl)(Cl)Cl` (stereo unspecified), with inactive: 98%; and `Cc1ccc(NP(=O)(Oc2cccc(C)c2)Oc2cccc(C)c2)nc1`, with inactive: 97.7%.
Then `c1ccc(-c2nn[nH]n2)c(-c2nn[nH]n2)c1`, with inactive: 113%; and `O=C(NC1CCS(=O)(=O)C1)NP(=S)(Oc1ccccc1)Oc1ccccc1` (stereo unspecified), with inactive: 87%.
As to `CCNC(=S)/N=C(\N)N[N+](=O)[O-]`, the GFP response vs DMSO was inactive: 95.6%.
For the molecule `C[C@@H]1C=CCP(=O)(Oc2ccccc2)O1` (stereo partly specified), the GFP response vs DMSO was inactive: 77.2%.
The value for `C[C@H]1OP(=O)(Oc2ccccc2)C[C@@H]2O[C@@H]21` (stereo partly specified) was inactive: 97.6%; that for `Cc1ccccc1CN(C)C(=O)COC(=O)C(O)(c1ccccc1)c1ccccc1` was inactive: 95.8%; that for `CC(=O)c1ccc(N2CC2c2ccncc2)cc1` (stereo unspecified) was inactive: 99.2%.
Then `CC(=O)Nc1ccc(Oc2c([N+](=O)[O-])cc([N+](=O)[O-])cc2[N+](=O)[O-])cc1`, with inactive: 95.1%; and `CC(=O)Nc1ccc([As](=O)(O)O)c(O)c1`, with inactive: 92.7%; and `CCOc1ccc(C2=NCC(CBr)S2)cc1` (stereo unspecified), with inactive: 102%.
With `O=P1(Nc2nc3ccc(Cl)cc3s2)COc2ccccc2O1` (stereo unspecified), the GFP response vs DMSO was inactive: 97.5%.
As for `CC(C)(C)C(=O)NC(Sc1ccccc1)C(Cl)(Cl)Cl` (stereo unspecified), the GFP response vs DMSO was inactive: 88.8%.
`Cc1c2non([O-])c-2c(C)[n+](=O)[n+]1[O-]`: the GFP response vs DMSO is inactive: 93.2%.
Regarding `O=C(NC(Sc1ccncn1)C(Cl)(Cl)Cl)c1ccccc1` (stereo unspecified), the GFP response vs DMSO was inactive: 102%.
For `Oc1ccccc1CNc1ccccn1`, the GFP response vs DMSO is inactive: 93.8%.
Turning to `CC(C)CC(=O)NC(Sc1ccc(Cl)cc1)C(Cl)(Cl)Cl` (stereo unspecified), the GFP response vs DMSO was inactive: 96.7%.
On to `Nc1cc(N)c2nonc2c1[N+](=O)[O-]`, for which the GFP response vs DMSO is inactive: 93.9%.
In the case of `Cc1ccc(N/C(=N/P(=O)(N2CCOCC2)N2CCOCC2)N2CCOCC2)cc1`, the GFP response vs DMSO was inactive: 97.3%.
On to `CN(C(=O)Cc1ccc(Cl)c(Cl)c1)[C@H]1CCCC[C@H]1N1CCCC1`, for which the GFP response vs DMSO was inactive: 93.6%.
Then `NC(=O)c1cc([N+](=O)[O-])cc([N+](=O)[O-])c1N`, with inactive: 94.3%.
Take `Clc1ccc(Cl)c(NC2=NCC(CBr)S2)c1` (stereo unspecified): the GFP response vs DMSO is inactive: 105%.
Then `CN1CCCC(OC(=O)C(c2ccccc2)c2ccccc2)C1` (stereo unspecified), with inactive: 91.3%; and `Cc1ccc(OP(=O)(Nc2nccs2)Oc2ccc(C)cc2)cc1`, with inactive: 98.2%.
On to `COc1ccccc1OP(=O)(Nc1ccc(C)cn1)Oc1ccccc1OC`, for which the GFP response vs DMSO is inactive: 98.8%.
For the molecule `O=[N+]([O-])c1cc([N+](=O)[O-])c(CCN2CCOCC2)c([N+](=O)[O-])c1`, the GFP response vs DMSO is inactive: 104%.
`Nc1cccc2ccc([As](=O)(O)O)cc12`: the GFP response vs DMSO was inactive: 94.8%.
Then `CCN(N=Nc1nonc1N)c1nonc1N`, with inactive: 103%; and `O=P(Nc1nc2ccc(Cl)cc2s1)(c1ccccc1)c1ccccc1`, with inactive: 92.5%.
With `O=C(O)c1ccccc1[As](=O)(O)O`, the GFP response vs DMSO is inactive: 102%.
With `CC(=O)Nc1ccc([As](=O)(O)O)cc1`, the GFP response vs DMSO was inactive: 98%.
Consider `CN(C(=O)Cc1ccc(Cl)c(Cl)c1)[C@H]1CCCC[C@@H]1N1CCCC1`, for which the GFP response vs DMSO was inactive: 86.8%.
As to `CCOP(=O)(Nc1ccccc1)OCC`, the GFP response vs DMSO is inactive: 104%.
With `Cc1cc(SC(NC(=O)c2ccc(F)cc2)C(Cl)(Cl)Cl)ncn1` (stereo unspecified), the GFP response vs DMSO was inactive: 95.5%.
Take `O=[N+]([O-])c1ncn(CCn2ncnc2[N+](=O)[O-])n1`: the GFP response vs DMSO was inactive: 97.1%.
For `CC(C)(C)C(=O)NC(Sc1ccncn1)C(Cl)(Cl)Cl` (stereo unspecified), the GFP response vs DMSO was inactive: 88%.
As to `O=C(O)CNc1ccc([As](=O)(O)O)cc1`, the GFP response vs DMSO is inactive: 92.8%.
For the molecule `O=[N+]([O-])c1cccc(NC2=NCC(CBr)S2)c1` (stereo unspecified), the GFP response vs DMSO is inactive: 106%.
Consider `O=C(Nc1cc([As](=O)(O)O)ccc1O)c1ccccc1`, for which the GFP response vs DMSO was inactive: 71.2%.
The value for `CCN(/C(=N/P(=O)(N1CCOCC1)N1CCOCC1)N1CCOCC1)c1ccc(OC)cc1` was inactive: 95.4%; that for `C[N+]1=C2C=CC=CC=C2SC12C([N+](=O)[O-])=CC([N+](=O)[O-])=C[C-]2[N+](=O)[O-]` (stereo unspecified) was inactive: 85.3%.
The value for `Nc1ccc([As](=O)(O)c2ccc(N)cc2)cc1` was inactive: 113%; that for `CC1CCN(C(=O)Oc2c(Cl)cc(Cl)c3cccnc23)CC1` was inactive: 104%; that for `CN(C)C(=O)OCCc1n(C)cc[n+]1C` was inactive: 107%.
Consider `CC(C)=N/N=C(\N)N[N+](=O)[O-]`, for which the GFP response vs DMSO was inactive: 104%.
Then `COc1ccc(C2=NCC(CBr)S2)cc1` (stereo unspecified), with inactive: 101%; and `O=[N+]([O-])c1cc([N+](=O)[O-])c(CCNc2ccccc2)c([N+](=O)[O-])c1`, with inactive: 105%; and `CCc1nc2c(n1)c1c(non1O)c1c2no[n+]1[O-]`, with inactive: 108%.
Then `Cc1ccc(NP(=O)(Oc2ccccc2)Oc2ccccc2)nc1`, with inactive: 91.8%; and `CC(=O)N1C2C3N(C(C)=O)C1C1N(C(C)=O)C(C(N1C(C)=O)N3C(C)=O)N2C(C)=O`, with inactive: 106%; and `O=[N+]([O-])c1cccc2n[nH]nc12`, with inactive: 109%.
Regarding `O=C(OC1CN2CCC1CC2)c1cccc([N+](=O)[O-])c1` (stereo unspecified), the GFP response vs DMSO is inactive: 99%.
For `CCOC(=O)c1ccc(NC(=O)C(C)(CCl)SC)cc1` (stereo unspecified), the GFP response vs DMSO was inactive: 86.2%.
Consider `CCC(C)N(CC(C)C)C(=S)SC(NC(C)=O)C(Cl)(Cl)Cl` (stereo unspecified), for which the GFP response vs DMSO is inactive: 93.3%.
Regarding `COP1(=S)c2c(C)nn(CCC#N)c2N=C(c2ccc(F)cc2)N1C` (stereo unspecified), the GFP response vs DMSO is inactive: 111%.
Then `O=C(Nc1ccncc1[N+](=O)[O-])c1ccc([N+](=O)[O-])cc1[N+](=O)[O-]`, with inactive: 92.4%; and `O=C(COc1ccccc1)OC1CN2CCC1CC2` (stereo unspecified), with inactive: 88.9%.
For `CCOC(=O)Nc1cccc([As](=O)(O)O)c1`, the GFP response vs DMSO was inactive: 97.5%.
On to `Cc1cc(SC(NC=O)C(Cl)(Cl)Cl)ncn1` (stereo unspecified), for which the GFP response vs DMSO is inactive: 96.4%.
For `O=[N+]([O-])c1ccc(Nc2ccc(Oc3ccc([N+](=O)[O-])cc3[N+](=O)[O-])cc2)c([N+](=O)[O-])c1`, the GFP response vs DMSO is inactive: 99.5%.
In the case of `CCOC(=O)Nc1ccc([As](=O)(O)O)c(O)c1`, the GFP response vs DMSO was inactive: 103%.
For `Cc1cc(SC(NC(=O)c2ccccc2)C(Cl)(Cl)Cl)nc(C(C)C)n1` (stereo unspecified), the GFP response vs DMSO was inactive: 90.6%.
Regarding `CC(C)c1ccc(OP(=O)(Nc2ccccn2)Oc2ccccc2F)cc1` (stereo unspecified), the GFP response vs DMSO is inactive: 88.2%.
In the case of `O=[N+]([O-])c1cc([N+](=O)[O-])c(-c2ccn[nH]2)s1`, the GFP response vs DMSO is inactive: 84.8%.
Then `CCN(CC)C(=S)SC(NC=O)C(Cl)(Cl)Cl` (stereo unspecified), with inactive: 88.6%.
For `COc1cc(C(=O)NCC2(N3CCOCC3)CCCCC2)ccc1OCC(C)C`, the GFP response vs DMSO was inactive: 101%.
Then `O=[As](O)(c1ccc(O)cc1)c1ccccc1O`, with inactive: 90.5%; and `C[As](=O)(O)c1cccc(C(=O)O)c1`, with inactive: 109%; and `Cc1ccc(OP(=O)(Nc2ccc([N+](=O)[O-])cn2)Oc2ccc(C)cc2)cc1`, with inactive: 98.9%.
Consider `Cc1ccc2nc3c(c(C)c2c1)CC(C(Cl)Cl)S3` (stereo unspecified), for which the GFP response vs DMSO was inactive: 96.2%.
As to `COc1ccc(N/C(=N/P(=O)(N2CCOCC2)N2CCOCC2)N2CCOCC2)cc1`, the GFP response vs DMSO is inactive: 98%.
Regarding `Cc1c2c(nc3ccccc13)SC(C(Cl)Cl)C2` (stereo unspecified), the GFP response vs DMSO is inactive: 96.5%.
Regarding `Cc1cc(=O)[nH]c(N[N+](=O)[O-])n1`, the GFP response vs DMSO is inactive: 106%.
The value for `O=C(OC1CN2CCC1CC2)C12CC3CC(CC(C3)C1)C2` (stereo unspecified) was inactive: 103%.
Take `COc1cc(I)ccc1[As](=O)(O)O`: the GFP response vs DMSO is inactive: 111%.
Turning to `COc1ccc2nc(NP(=O)(c3ccccc3)c3ccccc3)sc2c1`, the GFP response vs DMSO was inactive: 100%.
Take `Nc1cccc2c([As](=O)(O)O)cccc12`: the GFP response vs DMSO is inactive: 114%.
As to `Cc1ccc(NCCc2c([N+](=O)[O-])cc([N+](=O)[O-])cc2[N+](=O)[O-])cc1`, the GFP response vs DMSO is inactive: 109%.
As for `CCCOP(=S)(Nc1nc(N)cc(=O)[nH]1)OCCC`, the GFP response vs DMSO was inactive: 111%.
